# Reference: patent publication US20180178043A1, “FOCUSTED ULTRASOUND HYPERTHERMIA” (KING'S COLLEGE LONDON, priority 2015, published 2018)
# Legend:
# IGROV-1 tumours = settings: mouse, in vivo
# [1] = tested on: IGROV-1, SKOV-3 and BT474 cell line tumours; settings: mouse, in vivo
substance,measurement,setting,value
XL750-trastuzumab: Trastuzumab covalently labelled with XenoLight CF 750 NIRF dye,NIRF signal of excised heated right-hand tumours vs left-hand controls,IGROV-1 tumours,substantially more NIRF signal compared to the left-hand controls
same,accumulation in the area of the heated tumour,IGROV-1 tumours,substantial increase in antibody accumulation
same,"fluorescence accumulation, ventral side",IGROV-1 tumours,principally in the liver and the bladder
same,retention of NIRF signal in the tumours,IGROV-1 tumours,retained in the tumours for several weeks
same,time for which signal intensity was maintained,IGROV-1 tumours,at least 7 days
same,uptake in left vs right tumour (NIRF brightness),IGROV-1 tumours,the same in both tumours
same,time of maximum accumulation in both tumours,"IGROV-1 tumours; iv, 8 mg/kg",24 to 48 h
same,effect of level of Her-2 expression of the cancer cell lines,[1],appeared not to affect the biodistribution of the antibody in tumours
